Results: US20030166007A1, “Chemical proteomics” (MDS Proteomics Inc., priority 2002, published 2003)
Where two headings read alike, the source gives them in different places.

Sequences of proteins named here, by UniProt entry; tags and fusion partners are left off. A change or cut given only in a name is not applied to a line headed by its entry.
UniProt P22102: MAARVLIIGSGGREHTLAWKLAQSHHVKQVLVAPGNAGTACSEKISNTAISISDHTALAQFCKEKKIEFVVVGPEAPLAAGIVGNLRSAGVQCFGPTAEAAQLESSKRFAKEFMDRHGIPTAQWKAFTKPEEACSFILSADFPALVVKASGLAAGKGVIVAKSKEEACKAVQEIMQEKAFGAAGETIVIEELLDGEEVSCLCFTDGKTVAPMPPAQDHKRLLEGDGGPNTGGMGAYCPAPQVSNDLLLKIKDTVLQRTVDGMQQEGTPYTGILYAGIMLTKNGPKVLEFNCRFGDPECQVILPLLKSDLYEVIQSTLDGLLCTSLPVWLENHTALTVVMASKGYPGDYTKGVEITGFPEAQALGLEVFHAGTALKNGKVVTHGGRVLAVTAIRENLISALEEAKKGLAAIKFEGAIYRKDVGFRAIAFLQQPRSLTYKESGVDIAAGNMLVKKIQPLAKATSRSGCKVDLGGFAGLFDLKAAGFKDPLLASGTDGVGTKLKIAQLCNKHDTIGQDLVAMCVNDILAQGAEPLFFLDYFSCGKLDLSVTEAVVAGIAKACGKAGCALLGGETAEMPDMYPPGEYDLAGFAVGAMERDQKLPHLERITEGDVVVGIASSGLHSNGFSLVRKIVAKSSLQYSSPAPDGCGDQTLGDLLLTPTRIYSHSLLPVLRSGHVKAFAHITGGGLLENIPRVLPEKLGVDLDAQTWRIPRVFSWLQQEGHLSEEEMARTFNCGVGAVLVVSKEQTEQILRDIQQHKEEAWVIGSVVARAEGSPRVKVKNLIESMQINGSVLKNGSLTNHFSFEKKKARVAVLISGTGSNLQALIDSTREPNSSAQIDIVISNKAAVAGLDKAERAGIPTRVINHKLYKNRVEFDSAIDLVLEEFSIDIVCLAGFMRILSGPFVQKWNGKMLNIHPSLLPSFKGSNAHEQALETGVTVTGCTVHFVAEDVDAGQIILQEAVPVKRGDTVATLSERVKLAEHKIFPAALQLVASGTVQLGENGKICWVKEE

Assays:
[1] = molecular target: Glycinamideribonucleotide transformylase (GART) (Homo sapiens, UniProt P22102); conditions: HEK 293 lysate, eluted with 10 mM Methotrexate
[2] = molecular target: aminoimidazole ribonucleotide synthetase (AIRS) (Homo sapiens, UniProt P22102); conditions: HEK 293 lysate; part of trifunctional GARS-AIRS-GART
GART = GART (Homo sapiens, UniProt P22102); conditions: Methotrexate attached to magnetic PEGA support, HEK 293 lysate
GARS = GARS (Homo sapiens, UniProt P22102); conditions: Methotrexate attached to magnetic PEGA support, HEK 293 lysate

CN(Cc1cnc2nc(N)nc(N)c2n1)c1ccc(C(=O)N[C@@H](CCC(=O)O)C(=O)O)cc1 [Methotrexate]
Protein identified by Mass Spec.; Known Folate targets [1]: direct interaction between GART and the Methotrexate ligand | Protein identified by Mass Spec.; Known Folate targets ([1]; listed as MTX): ✓ | Association with the Methotrexate matrix [2]: binding occurs through the GART domain | Protein captured and identified (GART): identified | Protein captured and identified (GARS): identified
